The entries are a selection whose mix differs from that of the whole data set. The source made the active and inactive calls. Rule as the data show it: active = inhibition above about 50%; inactive = the rest.
system: glucose-6-phosphate dehydrogenase [Leuconostoc mesenteroides]; assay: bacterial G6PDH enzyme inhibition, coupled readout – biochemical, Leuconostoc mesenteroides enzyme, counter-screen for G6PDH-coupled screening assays (AID 1020); conditions: Purified L. mesenteroides G6PDH, diaphorase/resazurin coupled fluorescence, 45 min; at 5 µM; hits give high values

Compound | inhibition
CN(C)C1(CNC(=O)c2ccc(S(C)(=O)=O)cc2)CCCCC1 | inactive: 6.9%
Cc1nn(-c2ccccc2)c2c1P(=O)(N1CCOCC1)N(C)C(c1ccccc1)=N2 (centres undefined) | inactive: -6.1%
CC1CCC(C(C)C)C(OP(=O)(Nc2ccccn2)c2ccccc2)C1 (centres undefined) | inactive: 12.7%
Cc1ccc(OCC(=O)OC2CN3CCC2CC3)cc1 (centres undefined) | inactive: -17.9%
O=P1(Nc2ccc(Br)cn2)COc2ccccc2OC1 | inactive: 13.7%
O=P1(Nc2ncccn2)COc2ccccc2OC1 | inactive: 9.2%
Clc1n[nH]nc1-c1nn[nH][15n]1 | inactive: -0.6%
O=P1(Nc2ccccn2)COc2ccccc2OC1 | inactive: -1.4%
CC(C)/C=N\N=C(\N)N[N+](=O)[O-] | inactive: 7.3%
CN(C(=O)Cc1ccc(Cl)c(Cl)c1)[C@@H]1CCCC[C@H]1N1CCCC1 | inactive: 15.9%
Cc1cccc(OCC(=O)OC2CN3CCC2CC3)c1 (centres undefined) | inactive: -16.5%
COc1cc(C(=O)NCC2(N3CCOCC3)CCCCC2)cc(Cl)c1OC(C)C | inactive: 0.2%
COc1cc(C2NCCC3(OCCO3)C2(C)C)cc(OC)c1OC (centres undefined) | inactive: 7.1%
CCOP(=O)(Nc1cccc2ccccc12)OCC | inactive: 4.2%
Cc1ccc(NCCc2c([N+](=O)[O-])cc([N+](=O)[O-])cc2[N+](=O)[O-])cc1 | inactive: -17.2%
CCOP1(=S)c2c(C)nn(CCC#N)c2N=C(c2ccccc2F)N1C (centres undefined) | inactive: -8.3%
O=P(Nc1nccs1)(Oc1ccccc1)Oc1ccccc1 | inactive: 6.3%
O=P(Nc1nccs1)(c1ccccc1)c1nc2ccccc2s1 (centres undefined) | inactive: -7.7%
CCOP1(=S)c2c(C)nn(CCC#N)c2N=C(c2ccc(F)cc2)N1C (centres undefined) | inactive: 12.9%
O=[N+]([O-])c1ccc2c(c1)nnn2O | inactive: 1%
Cc1ccc2nc3c(c(C)c2c1)CC(C(Cl)Cl)S3 (centres undefined) | inactive: -24.9%
CC(C)NC(=O)NP(=O)(Oc1ccccc1)Oc1ccccc1 | inactive: 12%
CCN(CC)C(=S)SC(NC=O)C(Cl)(Cl)Cl (centres undefined) | inactive: 2.8%
O=[N+]([O-])c1cc([N+](=O)[O-])c(-c2ccn[nH]2)s1 | inactive: -1.2%
ClCCSc1nnc(-c2cccnc2)o1 | inactive: 8.4%
COc1ccc2nc(NP(=O)(c3ccccc3)c3ccccc3)sc2c1 | inactive: -2.7%
Cc1c2c(nc3ccccc13)SC(C(Cl)Cl)C2 (centres undefined) | inactive: -9.9%
O=C(OC1CN2CCC1CC2)C12CC3CC(CC(C3)C1)C2 (centres undefined) | inactive: 1.8%
Cc1cc(=O)[nH]c(N[N+](=O)[O-])n1 | inactive: 4.4%

— PubChem BioAssay AID1020 (Sanford-Burnham Center for Chemical Genomics, 2008)
